Results: publication PMC4215230, “Incorporation of Pentraxin 3 into Hyaluronan Matrices Is Tightly Regulated and Promotes Matrix Cross-linking” (The Journal of Biological Chemistry, 2014)

Protein sequences, listed by entry. Tags and fused reporters are not part of them. Residues count along the entry.
UniProt P26022, 18-381: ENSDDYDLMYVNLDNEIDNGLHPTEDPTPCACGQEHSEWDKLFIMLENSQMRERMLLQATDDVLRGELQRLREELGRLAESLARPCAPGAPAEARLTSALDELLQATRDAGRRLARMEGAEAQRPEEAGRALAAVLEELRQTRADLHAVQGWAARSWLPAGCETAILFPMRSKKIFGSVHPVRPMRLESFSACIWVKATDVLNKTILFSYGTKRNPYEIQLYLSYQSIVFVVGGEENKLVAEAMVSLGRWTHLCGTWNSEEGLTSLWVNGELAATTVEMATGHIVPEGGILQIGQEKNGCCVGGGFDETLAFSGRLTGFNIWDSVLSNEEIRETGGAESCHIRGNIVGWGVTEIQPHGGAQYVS

Biological target: T1, Biotinylated PTX3 (human, UniProt P26022, NHS-PEG4-biotin on primary amines, on average 2 mol of biotin/mol of PTX3 protomer)
T1 construct: pentraxin 3 (PTX3), human, recombinant, biotinylated through primary amines; Immobilised on a streptavidin monolayer by its biotins, in a variety of orientations; also called b-PTX3; source: Chinese hamster ovary 3.5 cell line, purified, then modified with EZ-Link NHS-PEG4-Biotin
Assay: spectroscopic ellipsometry; b-PTX3 immobilised on a streptavidin monolayer at a monomer surface density of 4.8 pmol/cm^2; Link_TSG6 or rhTSG-6 added at identical molar bulk concentrations, then buffer rinse; HEPES buffer pH 7.4; no HA
Conditions: both partners purified

B1: Full-length recombinant human TSG-6 (rhTSG-6) (natural protein, UniProt P98066 18-277, looked up)
chain: WGFKDGIFHNSIWLERAAGVYHREARSGKYKLTYAEAKAVCEFEGGHLATYKQLEAARKIGFHVCAAGWMAKGRVGYPIVKPGPNCGFGKTGIIDYGIRLNRSERWDAYCYNPHAKECGGVFTDPKQIFKSPGFPNEYEDNQICYWHIRLKYGQRIHLSFLDFDLEDDPGCLADYVEIYDSYDDVHGFVGRYCGDELPDDIISTGNVMTLKFLSDASVTAGGFQIKYVAMDPVSKSSQGKNTSTTSTGNKNFLAGRFSHL
notes: TSG-6 (secreted product of tumor necrosis factor-stimulated gene-6), human, full-length recombinant, 30.1 kDa; Link module and CUB module; also called full-length TSG-6; source: Drosophila Schneider 2 cells, purified
stoichiometry N: 4 TSG-6 binding sites per PTX3 octamer
